Results taken from patent US20100093706A1, “MULTIMEDIATOR TRANSPORTER INHIBITORS FOR USE IN TREATMENT OF CENTRAL NERVOUS SYSTEM DISORDERS” (priority 2006, published 2010).
pEC50: −log10 of the molar value.

The chains behind the UniProt entries cited, without tags or fusion partners.
UniProt P23977, whole entry: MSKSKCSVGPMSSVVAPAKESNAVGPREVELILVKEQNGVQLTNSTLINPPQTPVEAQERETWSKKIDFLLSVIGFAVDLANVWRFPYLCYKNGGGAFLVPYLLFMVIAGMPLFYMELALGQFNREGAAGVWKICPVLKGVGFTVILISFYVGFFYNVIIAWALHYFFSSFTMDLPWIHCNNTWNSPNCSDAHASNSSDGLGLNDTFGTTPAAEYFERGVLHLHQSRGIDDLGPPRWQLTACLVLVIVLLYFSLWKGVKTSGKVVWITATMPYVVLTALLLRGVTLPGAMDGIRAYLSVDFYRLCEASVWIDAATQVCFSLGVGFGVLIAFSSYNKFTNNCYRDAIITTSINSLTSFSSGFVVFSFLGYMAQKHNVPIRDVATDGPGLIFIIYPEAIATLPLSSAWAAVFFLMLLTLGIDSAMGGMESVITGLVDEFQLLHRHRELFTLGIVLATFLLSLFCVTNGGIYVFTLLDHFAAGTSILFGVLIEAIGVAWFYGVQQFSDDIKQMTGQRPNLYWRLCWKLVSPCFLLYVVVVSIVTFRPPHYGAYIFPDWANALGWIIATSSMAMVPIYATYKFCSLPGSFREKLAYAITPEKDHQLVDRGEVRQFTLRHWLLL
UniProt P31652, whole entry: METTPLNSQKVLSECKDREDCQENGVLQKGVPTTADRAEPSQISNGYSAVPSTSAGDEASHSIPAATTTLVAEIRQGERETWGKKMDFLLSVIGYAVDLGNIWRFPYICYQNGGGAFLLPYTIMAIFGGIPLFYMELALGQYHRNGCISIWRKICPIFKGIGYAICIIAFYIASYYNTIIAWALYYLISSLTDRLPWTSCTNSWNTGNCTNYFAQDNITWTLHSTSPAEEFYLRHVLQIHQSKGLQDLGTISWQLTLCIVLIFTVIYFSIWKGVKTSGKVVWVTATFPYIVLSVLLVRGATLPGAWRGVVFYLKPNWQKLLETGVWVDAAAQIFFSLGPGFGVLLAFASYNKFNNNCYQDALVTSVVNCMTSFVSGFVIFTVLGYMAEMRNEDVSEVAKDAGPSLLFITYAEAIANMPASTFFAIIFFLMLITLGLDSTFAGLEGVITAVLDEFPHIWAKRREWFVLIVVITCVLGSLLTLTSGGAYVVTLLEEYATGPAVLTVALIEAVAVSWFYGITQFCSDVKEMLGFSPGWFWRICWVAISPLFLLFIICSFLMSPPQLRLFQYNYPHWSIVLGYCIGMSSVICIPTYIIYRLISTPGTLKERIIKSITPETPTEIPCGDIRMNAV
UniProt Q01959, whole entry: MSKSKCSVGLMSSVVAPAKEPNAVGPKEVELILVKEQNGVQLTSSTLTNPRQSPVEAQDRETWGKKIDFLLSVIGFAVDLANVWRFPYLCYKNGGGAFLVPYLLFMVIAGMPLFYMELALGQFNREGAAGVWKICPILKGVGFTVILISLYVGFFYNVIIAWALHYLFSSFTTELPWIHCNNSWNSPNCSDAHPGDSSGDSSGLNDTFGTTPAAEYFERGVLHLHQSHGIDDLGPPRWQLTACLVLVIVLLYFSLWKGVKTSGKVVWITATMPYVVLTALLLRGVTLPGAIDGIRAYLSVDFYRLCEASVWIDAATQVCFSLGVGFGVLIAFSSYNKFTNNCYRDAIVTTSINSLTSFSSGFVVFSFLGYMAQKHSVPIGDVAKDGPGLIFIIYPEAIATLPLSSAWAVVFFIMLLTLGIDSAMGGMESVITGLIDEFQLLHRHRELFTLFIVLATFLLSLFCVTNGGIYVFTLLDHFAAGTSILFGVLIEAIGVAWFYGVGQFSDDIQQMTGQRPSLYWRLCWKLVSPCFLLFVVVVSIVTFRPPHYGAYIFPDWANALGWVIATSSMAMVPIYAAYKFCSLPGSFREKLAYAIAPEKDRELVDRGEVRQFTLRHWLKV

Tests used:
Format in all cases: cell-based
DAT (r) = DAT (r) (Rattus norvegicus, UniProt P23977); assay: in vitro functional uptake, rat DAT; details: unit inferred
5-HT (r) = 5-HT (r) (Rattus norvegicus, UniProt P31652); assay: in vitro functional uptake, rat 5-HT; details: unit inferred
DAT (h) = molecular target: T1, DAT (h) (Homo sapiens, UniProt Q01959)
T1 construct: expressed in transfected cells
Procedure: Functional activity of the compounds was determined in vitro in cellular assays using recombinant human cell lines.

DAT (SLC6A3) = molecular target: T2, DAT (SLC6A3) (Homo sapiens, UniProt Q01959); assay: in vitro inhibition profile, IC50 of DAT (uptake assay); details: from Table II IC50
T2 construct: expressed in transfected cells
Procedure: Before the assay, cells expressing DAT are washed once with KRH and equilibrated for 5 min. The cells may be assayed in 24-well plates and incubated for 2-5 min. with tritiated amines. Nontransported inhibitors were preincubated for 5 min, and substrates were applied together with the tritiated substrate.
Experiments to determine the ionic requirements for DAT-mediated uptake are done in KRH buffer, substituting LiCl or choline Cl for NaCl (sodium-dependence) or substituting D-gluconates for NaCl and KCl, and Ca(NO3)2 for CaCl2 (chloride dependence). Cells are washed twice with sodium- or chloride-free KRH before the assay (each wash step at least 5 min). In all transport assays, incubation periods and substrate concentrations are chosen such that uptake obeyed first-order rate kinetics.
Vmax values for amine uptake in stable transfected DAT-cells are determined in parallel assays for at least two amines per experiment and expressed as relative values.

Row | SMILES | pEC50 (DAT (r)) | pEC50 (5-HT (r)) | selectivity for DAT over 5-HT (DAT (h)) | selectivity for DAT over NET (DAT (h)) | fold selectivity of DAT against related receptors (NET, 5-HT) (DAT (SLC6A3))
1 | CN[C@H](CC(C)C)C1(c2ccc(Cl)cc2)CCC1 [R-DMS, reference compound] | 7.15 | 5.82 |  |  | 
2 | CC(C)C[C@@H](N)C1(c2ccc(Cl)cc2)CCC1 [R-DDMS, reference compound] | 7.00 | 5.82 |  |  | 
3 | CC1CCN(CC2(c3ccc(Cl)cc3)CCC2)CC1COc1ccc(C(F)(F)F)cc1 (stereo not shown) [(1)] |  |  | 5000 fold | 1000 fold | 175-1200 fold
